Ab-91 heavy chain CDR variants: yeast mating affinities

From the AlphaSeq antibody data of Engelhart et al. 2022 (doi:10.1038/s41597-022-01779-4), copy in the FLAb collection.

All variants were tested on one target, the spike HR2 peptide PDVDLGDISGINAS (SARS-CoV-2).

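The starting antibody came from a phage panning campaign against this peptide. AAYL51 was designed without a model: most single CDR substitutions and a random sample of double and triple ones. The scFvs were displayed on barcoded MATa yeast, the peptide on MATalpha yeast. The frequency of each diploid, read from paired DNA barcodes, reflects how well the two displayed proteins bind. A regression on co-assayed BCL2-family reference pairs converts the normalised counts of each replicate to an apparent Kd. Each pool was mated in three replicate cultures.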

Parent: Ab-91, a human scFv built as VL, a (GGGGS)3 linker, VH. Only the CDRs of the heavy chain vary.
VL: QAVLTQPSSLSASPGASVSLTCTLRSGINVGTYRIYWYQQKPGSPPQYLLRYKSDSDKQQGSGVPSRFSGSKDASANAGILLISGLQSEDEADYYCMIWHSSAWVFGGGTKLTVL
VH: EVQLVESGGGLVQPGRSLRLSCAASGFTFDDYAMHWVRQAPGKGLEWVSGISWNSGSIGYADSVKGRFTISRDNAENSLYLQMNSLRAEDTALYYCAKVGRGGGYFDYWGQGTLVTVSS

Substitutions are numbered in sequence along the VH above, starting at 1 (not Kabat). The read-out is the apparent dissociation constant on a log10 scale (nM): the lower, the stronger. A mean of the replicates is given; it leaves out those without a signal. "ND" means that the variant was in the library but no mating with the target was seen in that replicate; the authors take this as a sign of poor binding, and no number exists. For reference, the parent read 1.86 as the reference entry and 0.88 as a member of this library.

| changes | log10 Kd, replicates | log10 Kd (nM), mean |
|---|---|---|
| T28Y G59D G103Q | ND / ND / ND | ND |
| G26T H35C G100Q | ND / ND / ND | ND |
| G59C G100I F106H | ND / 4.62 / ND | 4.62 |
| D30K Y32D H35A | 4.05 / 5.44 / ND | 4.74 |
| H35Y R101D Y105R | ND / ND / ND | ND |
| S57E S63N Y108S | 1.31 / 1.39 / 0.72 | 1.14 |
| Y60Q D107Q | ND / ND / ND | ND |
| D30F S63F G100Y | ND / ND / ND | ND |
| D31T S52Q G100D | ND / 3.78 / 4.82 | 4.30 |
| G56S D62Q G102W | ND / 4.02 / 4.96 | 4.49 |
| D31Y S52N G104Q | 1.17 / 1.51 / 0.74 | 1.14 |
| G50E K65A G103I | ND / ND / ND | ND |
| T28F F29D M34G | ND / 3.60 / ND | 3.60 |
| G26I A33V G100T | 5.05 / ND / ND | 5.05 |
| Y32R I51C V99N | ND / ND / ND | ND |
| F27N G56K | ND / ND / ND | ND |
| G26D Y60T K65G | ND / ND / ND | ND |
| W53N G56N S63H | 4.80 / 4.53 / ND | 4.66 |
| G26I Y60H D107C | ND / ND / ND | ND |
| G50V V99P G104D | ND / ND / 5.44 | 5.44 |
| D31P I58H R101V | ND / ND / ND | ND |
| D30L S63T G104P | ND / ND / 3.99 | 3.99 |
| A33K S57V | ND / ND / ND | ND |
| D30I D31H N54G | 3.55 / 3.16 / 3.99 | 3.57 |
| A61Q R101F G104N | ND / ND / ND | ND |
| D30T G59M G104L | ND / ND / ND | ND |
| G50K S57G | ND / 5.18 / 5.11 | 5.14 |
| S52L V99Q Y108I | 3.65 / ND / ND | 3.65 |
| I58C D62S G103D | 4.38 / ND / ND | 4.38 |
| F29T S52T K65H | 4.54 / ND / 5.41 | 4.98 |
| A33V H35C D62T | ND / ND / ND | ND |
| S63H V99Y D107A | 1.10 / 0.84 / 0.54 | 0.83 |
| K65F V99N R101G | 4.66 / 4.07 / 4.92 | 4.55 |
| F27W G56H V99L | ND / 4.71 / ND | 4.71 |
| D30T H35G D107P | ND / ND / ND | ND |
| S63F G104Q Y105P | ND / ND / ND | ND |
| G26N Y32P S55V | ND / ND / 4.22 | 4.22 |
| G26F I58Y | ND / ND / ND | ND |
| A61G V99H | ND / ND / ND | ND |
| T28L D30G I58W | ND / ND / ND | ND |
| W53C Y60A D107R | ND / ND / ND | ND |
| G26Y M34G R101A | 4.46 / 4.67 / ND | 4.57 |
| F29P G56K | ND / ND / ND | ND |
| A61G G104Y D107L | 4.37 / ND / ND | 4.37 |
| W53V G56A S57Q | 1.18 / 1.30 / 0.59 | 1.03 |
| G26F S57E | 3.05 / 3.23 / 2.62 | 2.97 |
| S52W G102K G103W | 5.62 / ND / 4.52 | 5.07 |
| D62T K65W Y105N | 2.97 / ND / 3.74 | 3.35 |

For reference, 7 entries of the list once more:

changes	log10 Kd, replicates	log10 Kd (nM), mean
D62T K65W Y105N	2.97 / ND / 3.74	3.35
Y60Q D107Q	ND / ND / ND	ND
G50E K65A G103I	ND / ND / ND	ND
D31T S52Q G100D	ND / 3.78 / 4.82	4.30
A61G V99H	ND / ND / ND	ND
G26I A33V G100T	5.05 / ND / ND	5.05
D30K Y32D H35A	4.05 / 5.44 / ND	4.74

Nonspecific signal, from three strains lacking the peptide, appeared in 21% of pairings of library AAYL51, centred on 4.54 (5% of these signals below 3.26); values are not corrected for it.